Experiment: Aqueous solubility of ziprasidone salt forms
Source text: To achieve efficacious blood levels over long periods of time, the sustained release dosage form should release ziprasidone to the gastrointestinal tract in a manner that allows ziprasidone to be absorbed for a sustained length of time. However, formulating ziprasidone into a sustained release dosage form presents a number of problems. […] Such low solubility at intestinal pH inhibits absorption of ziprasidone in the intestines.
In one embodiment, the solubility-improved form of ziprasidone is a high solubility salt form. It is known that some low-solubility drugs may be formulated in highly soluble salt forms that provide temporary improvements in the concentration of the drug in a use environment relative to another salt form of the drug.

Substance: Succinate
- pH of Saturated Solution: 3.4

— patent US20070190129A1, “Sustained release dosage forms of ziprasidone” (Pfizer Inc., priority 2003, published 2007)
